Measured values from ChEMBL document CHEMBL1201862, “PubChem BioAssay data set” (2004).
Some of the results follow. Cut-off read from the data, not from the text of the source: active = GI50 up to about 1.1 µM and inactive = higher. These assays gave more results; the selection is not random.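 Step 1: Grow cells in 96-well plates. Step 2: Expose to compound for 48 hours at 5 concentrations. Step 3: Interpolate endpoints linearly; if unreached, use highest concentration. GI50 is the concentration that inhibits growth by half.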 For some of these results: Entries with a potency or affinity are not part of this list.

These compounds were tested on MOLT-4 (assay: NCI tumour cell line growth inhibition, 48 h).

| Compound | GI50 |
| --- | --- |
| O=C1Nc2ccc([N+](=O)[O-])cc2/C1=N/Nc1ccc([N+](=O)[O-])cc1[N+](=O)[O-] | inactive: 31.7 µM |
| O=[As](O)(O)O | inactive: > 100 µM |
| ClCCSc1c2ccccc2nc2ccccc12 | inactive: 3.21 µM |
| O=[N+]([O-])c1ncn(F)c1[N+](=O)[O-] | inactive: > 100 µM |
| O=[N+]([O-])C1([N+](=O)[O-])CCCc2nonc21 | inactive: 24.5 µM |
| C[S+](N)(=O)CCC(N)P(=O)(O)O (stereo not drawn) | inactive: > 100 µM |
| COP(C)(=O)C(N)Cc1ccccc1 (stereo not drawn) | inactive: > 100 µM |
| Cc1ccc2ccc3ccc4ccccc4c3c2c1.O=C1c2cc([N+](=O)[O-])ccc2-c2c1cc([N+](=O)[O-])cc2[N+](=O)[O-] | active: 0.977 µM |
| O=C1CCN2CCCC12 (stereo not drawn) | inactive: > 100 µM |
| O=[N+]([O-])C1([N+](=O)[O-])COCOC1 | inactive: > 100 µM |
| CCCCCCCCCCCCCNCC(C)O (stereo not drawn) | inactive: 12.8 µM |
| NNc1nc2nonc2nc1NN | inactive: 40.1 µM |
| CCCC[S+](N)(=O)CCC(N)P(=O)(O)O (stereo not drawn) | inactive: 10 µM |
| COc1ccc([N+](=O)[O-])c(C[N+](C)(CCCl)CCCl)c1 | inactive: 69 µM |
| COc1ccc(C[N+](C)(CCCl)CCCl)c([N+](=O)[O-])c1 | inactive: 40.5 µM |
| Nc1nc2c(ncn2CCN(CCCl)CCCl)c(=O)[nH]1 | inactive: > 100 µM |
| Cc1ccc2ccc(C)c(C)c2c1.O=[N+]([O-])c1cc([N+](=O)[O-])c(O)c([N+](=O)[O-])c1O | inactive: > 100 µM |
| O[C@@H]1CCN2CCC[C@H]12 | inactive: > 100 µM |
| O[C@H]1[C@@H](O)CC2CCN3Cc4cc5c(cc4[C@H]1C23)OCO5 (stereo partly drawn) | inactive: > 100 µM |
| Cc1[nH]c2c(C)c([N+](=O)[O-])c(C)c([N+](=O)[O-])c2c1[N+](=O)[O-] | inactive: 4.63 µM |
| Cc1ccc([N+](=O)[O-])c(C[N+](C)(CCCl)CCCl)c1 | inactive: 18.1 µM |

The compounds below were run on Malme-3M (assay: NCI tumour cell line growth inhibition, 48 h).

| Compound | GI50 |
| --- | --- |
| COc1ccc2nccc(C=O)c2c1 | inactive: 2.02 µM |
| O=C1Nc2ccc([N+](=O)[O-])cc2/C1=N/Nc1ccc([N+](=O)[O-])cc1[N+](=O)[O-] | inactive: 17.8 µM |
| O=[As](O)(O)O | inactive: > 100 µM |
| ClCCSc1c2ccccc2nc2ccccc12 | inactive: 3.29 µM |
| O=[N+]([O-])C1([N+](=O)[O-])CCCc2nonc21 | inactive: 30.5 µM |
| COP(C)(=O)C(N)Cc1ccccc1 (stereo not drawn) | inactive: 70.1 µM |
| Cc1ccc2ccc3ccc4ccccc4c3c2c1.O=C1c2cc([N+](=O)[O-])ccc2-c2c1cc([N+](=O)[O-])cc2[N+](=O)[O-] | inactive: 8.38 µM |
| O=C1CCN2CCCC12 (stereo not drawn) | inactive: 85.5 µM |
| O=[N+]([O-])C1([N+](=O)[O-])COCOC1 | inactive: 33.4 µM |
| CCCCCCCCCCCCCNCC(C)O (stereo not drawn) | inactive: 11.6 µM |
| NNc1nc2nonc2nc1NN | inactive: 25.8 µM |
| COc1ccc([N+](=O)[O-])c(C[N+](C)(CCCl)CCCl)c1 | inactive: > 100 µM |
| COc1ccc(C[N+](C)(CCCl)CCCl)c([N+](=O)[O-])c1 | inactive: 42.6 µM |
| Nc1nc2c(ncn2CCN(CCCl)CCCl)c(=O)[nH]1 | inactive: > 100 µM |
| Cc1ccc2ccc(C)c(C)c2c1.O=[N+]([O-])c1cc([N+](=O)[O-])c(O)c([N+](=O)[O-])c1O | inactive: > 100 µM |
| O[C@@H]1CCN2CCC[C@H]12 | inactive: 71.4 µM |
| O[C@H]1[C@@H](O)CC2CCN3Cc4cc5c(cc4[C@H]1C23)OCO5 (stereo partly drawn) | inactive: > 100 µM |
| Cc1[nH]c2c(C)c([N+](=O)[O-])c(C)c([N+](=O)[O-])c2c1[N+](=O)[O-] | inactive: 5.21 µM |
| Cc1ccc([N+](=O)[O-])c(C[N+](C)(CCCl)CCCl)c1 | inactive: 16.4 µM |

These compounds were tested on NCI-H226 (assay: NCI tumour cell line growth inhibition, 48 h).

| Compound | GI50 |
| --- | --- |
| COc1ccc2nccc(C=O)c2c1 | inactive: 23.8 µM |
| O=C1Nc2ccc([N+](=O)[O-])cc2/C1=N/Nc1ccc([N+](=O)[O-])cc1[N+](=O)[O-] | inactive: 23.4 µM |
| O=[As](O)(O)O | inactive: > 100 µM |
| ClCCSc1c2ccccc2nc2ccccc12 | inactive: 18.2 µM |
| O=[N+]([O-])c1ncn(F)c1[N+](=O)[O-] | inactive: 93.3 µM |
| O=[N+]([O-])C1([N+](=O)[O-])CCCc2nonc21 | inactive: > 100 µM |
| C[S+](N)(=O)CCC(N)P(=O)(O)O (stereo not drawn) | inactive: > 100 µM |
| COP(C)(=O)C(N)Cc1ccccc1 (stereo not drawn) | inactive: > 100 µM |
| Cc1ccc2ccc3ccc4ccccc4c3c2c1.O=C1c2cc([N+](=O)[O-])ccc2-c2c1cc([N+](=O)[O-])cc2[N+](=O)[O-] | inactive: 7.48 µM |
| O=C1CCN2CCCC12 (stereo not drawn) | inactive: > 100 µM |
| O=[N+]([O-])C1([N+](=O)[O-])COCOC1 | inactive: > 100 µM |
| CCCCCCCCCCCCCNCC(C)O (stereo not drawn) | inactive: 14.1 µM |
| NNc1nc2nonc2nc1NN | inactive: 31.8 µM |
| CCCC[S+](N)(=O)CCC(N)P(=O)(O)O (stereo not drawn) | inactive: > 100 µM |
| COc1ccc(C[N+](C)(CCCl)CCCl)c([N+](=O)[O-])c1 | inactive: > 100 µM |
| Cc1ccc2ccc(C)c(C)c2c1.O=[N+]([O-])c1cc([N+](=O)[O-])c(O)c([N+](=O)[O-])c1O | inactive: > 100 µM |
| O[C@@H]1CCN2CCC[C@H]12 | inactive: > 100 µM |
| O[C@H]1[C@@H](O)CC2CCN3Cc4cc5c(cc4[C@H]1C23)OCO5 (stereo partly drawn) | inactive: > 100 µM |
